Measured values reported in patent US12214059B2, “Cleavable radioligands for targeting cell surface receptors and uses thereof” (Full-Life Te[…] Limited, priority 2021, dated 2025).

The chains behind the UniProt entries cited, without tags or fusion partners.
UniProt Q04609, whole entry: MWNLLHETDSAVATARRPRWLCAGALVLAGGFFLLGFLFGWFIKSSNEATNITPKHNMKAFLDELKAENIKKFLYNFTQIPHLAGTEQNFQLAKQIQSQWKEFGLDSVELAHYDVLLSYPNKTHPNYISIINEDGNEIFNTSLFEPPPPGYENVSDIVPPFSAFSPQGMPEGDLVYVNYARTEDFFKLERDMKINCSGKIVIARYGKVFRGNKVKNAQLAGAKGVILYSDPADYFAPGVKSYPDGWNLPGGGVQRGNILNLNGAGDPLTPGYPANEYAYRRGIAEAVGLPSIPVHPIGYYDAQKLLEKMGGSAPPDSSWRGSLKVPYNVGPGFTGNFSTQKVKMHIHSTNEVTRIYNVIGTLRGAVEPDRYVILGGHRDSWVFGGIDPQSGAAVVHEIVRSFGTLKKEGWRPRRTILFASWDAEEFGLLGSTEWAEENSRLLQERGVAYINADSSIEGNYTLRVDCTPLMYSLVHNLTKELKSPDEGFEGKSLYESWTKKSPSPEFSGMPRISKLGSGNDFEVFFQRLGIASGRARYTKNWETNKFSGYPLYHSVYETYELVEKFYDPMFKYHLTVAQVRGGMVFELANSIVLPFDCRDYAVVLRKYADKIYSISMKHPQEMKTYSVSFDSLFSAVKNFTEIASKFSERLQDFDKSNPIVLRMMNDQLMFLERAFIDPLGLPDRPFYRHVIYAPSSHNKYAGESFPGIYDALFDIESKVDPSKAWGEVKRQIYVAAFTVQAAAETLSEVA

Tests used:
[1] = Ex-vivo mouse plasma stability study of ^177Lu-labeled compounds; type: in vitro ADME; details: 37° C.
Procedure: Plasma Stability Study (Mouse and Human)
Mouse blood was collected via cardiac puncture of the left ventricle. Blood was placed into heparin-coated microfuge tubes and then centrifuged at 3500 rpm for 10 min to separate plasma for stability studies. Human plasma was purchased directly.
At each time point (0, 1, 2, 4, 24, 48 72 h), an aliquot of 25 μL sample was taken and mixed with 100 μL methanol containing 1% formic acid, vertex for 30-60 sec, then centrifuged at 20000 rpm for 10 min. 100 μL supernatant was collected and diluted with 40 μL H2O. 100 μL of the resulting mixture was injected to radio-HPLC for stability assessment, as shown examples FIG. 2 and FIG. 3. The best-fit T½ value of test compounds were calculated by fitting the data with linear or non-linear regression using GraphPad Prism 8.0.1.

[2] = test system: metastatic castration-resistant prostate cancer (mCRPC) patients; assay: Human imaging (PET/CT, whole-body scintigraphy and SPECT/CT); type: in vivo; details: 4 mCRPC patients
Procedure: Whole-body PET/CT acquisitions were performed with a United Imaging, uMI780 scanner ˜60 min after the dosing of 0.05 mCi per kilogram body weight of ^68Ga-PSMA11 (gozetotide).

PSMA = target: T1, PSMA (Homo sapiens, UniProt Q04609); assay: Cell-based radioligand competitive binding assay (^125I-C-8, LNCaP cells); details: for Relative Binding Affinity: based on the mean value of the IC50 number, C-1 = 1.00
T1 construct: host or cells: LNCaP cells
Procedure: The culture medium was replaced with fresh medium every 2-3 days. Experiments were performed with cells at 70-80% confluence.
The final volume in each well was maintained at 200 μL and insufficient volume was adjusted by the binding buffer.

[3] = test system: PC-3 PIP tumor-bearing mice; assay: Biodistribution study in SCID mice bearing PC3-PIP tumor; type: in vivo, mouse; details: PC3 PIP tumor-bearing mice
Procedure: Biodistribution Study in SCID Mice Bearing PC3-PIP Tumor
Severe combined immunodeficient (ICR-SCID) mice from the Institute of Cancer Research (Taconic Farms, Germantown, NY) were utilized for these studies. […] These mice received bilateral subcutaneous rear flank injections of approximately 10×10^6 PC-3 PIP cells (prostate cancer cell PC-3 stably expressing human PSMA) suspended in 100 μL of 0.9% NaCl. […] The tissues and organs were weighed, counted in a PerkinElmer Wizard 3 automatic γ counter, and the percent injected dose (% ID) and % ID/g of each organ or tissue were calculated, as shown in Tables 5-24 and FIG. 1 and FIG. 2.

LNCap tumor-bearing mice = assay: Biodistribution study in CB-17 SCID mice bearing LNCap tumor; type: in vivo, mouse; details: for T at 24 h (tumor uptake) / T/K at 24 h (tumor uptake/kidney uptake) / T at 96 h (tumor uptake) / T/K at 96 h (tumor uptake/kidney uptake): LNCap tumor-bearing mice
Procedure: Biodistribution Study in CB-17 SCID Mice Bearing LNCap Tumor
All animal care and experimental procedure were performed by following the animal protocols approved by the ethics committee of China Institute of Radiation Protection. The CB-17 SCID mice (Charles River, Beijing) were utilized for these studies. […] These mice received subcutaneous rear flank injections of approximately 4×10^6 LNCap cells suspended in 200 μL of phosphate-buffered saline (PBS) and Matrigel (Corning) (1/1).

[4] = * = value obtained using nonlinear regression

Substance | % Remaining 0 min [1] [%] | % Remaining 1 h [1] [%] | % Remaining 4 h [1] [%] | % Remaining 24 h [1] [%] | % Remaining 48 h [1] [%] | % Remaining 72 h [1] [%] | T½ (h) [1, 4] | Relative Binding Affinity (PSMA) | other results
HO-C18-gGlu-OEG-OEG-Leu-4hBA-OEG-Lys(DOTA)-Trx-2NaI-eKuE [Example I-54] | 100 | 90.7 | 11.2 | 0 | 0 | 0 | 2.1* h |  | 
^68Ga-PSMA11 |  |  |  |  |  |  |  |  | uptake in salivary glands [2]: high uptake
C16-gGlu-K(DOTA)-Trx-2NaI-eKuE [Example C-5, reference compound] |  |  |  |  |  |  |  | 0.04 | 
C16-gGlu-OEG-OEG-OEG-K(DOTA)-Trx-2NaI-eKuE [Example C-3, reference compound] |  |  |  |  |  |  |  | 0.02 | 
HO-C20-gGlu-OEG-OEG-ESL1-Lys(DOTA)-OEG-Trx-2NaI-eKuE [Example I-25] |  |  |  |  |  |  |  | 0.20 | 
HO-C18-gGlu-OEG-OEG-ESL1-Gly-Gly-Gly-Lys(DOTA)-OEG-Trx-2NaI-eKuE [Example I-58] | 100 | 100 | 87.4 |  | 52.2 | 37.2 |  |  | T½ [1, 4]: 45.8 h
HO-C18-gGlu-OEG-OEG-Gly-5hPA-Lys(DOTA)-OEG-Trx-2NaI-eKuE [Example I-49] | 100 | 100 | 83.1 | 54.2 | 46.5 | 32.4 | 33.0* h |  | T at 24 h (tumor uptake) [3]: 35.1; T/K at 24 h (tumor uptake/kidney uptake) [3]: 3.49; T at 96 h (tumor uptake) [3]: 26.0; T/K at 96 h (tumor uptake/kidney uptake) [3]: 13.4
DOTA-gGlu(-eLys-4pIBA)-Trx-2NaI-eKuE [Example C-9, reference compound] |  |  |  |  |  |  |  |  | T at 24 h (tumor uptake) (LNCap tumor-bearing mice): 45.7; T/K at 24 h (tumor uptake/kidney uptake) (LNCap tumor-bearing mice): 1.27; T at 96 h (tumor uptake) (LNCap tumor-bearing mice): 52.5; T/K at 96 h (tumor uptake/kidney uptake) (LNCap tumor-bearing mice): 0.89; uptake ratio between tumor to kidney (LNCap tumor-bearing mice; compared to PSMA-617 (C-1)): poor uptake ratio between tumor to kidney
HO-C18-gGlu-OEG-OEG-Lys(-ESL1-OEG-DOTA)-OEG-Trx-2NaI-eKuE [Example I-47] | 100 | 100 | 94.7 | 81.5 | 76.1 | 59.6 | 121* h |  | 
4pIBA-gGlu-OEG-OEG-Lys(-ESL1-DOTA)-OEG-Trx-2NaI-eKuE [Example I-69] |  |  |  |  |  |  |  |  | T at 24 h (tumor uptake) (LNCap tumor-bearing mice): 37.9; T/K at 24 h (tumor uptake/kidney uptake) (LNCap tumor-bearing mice): 1.84; T at 96 h (tumor uptake) (LNCap tumor-bearing mice): 26.7; T/K at 96 h (tumor uptake/kidney uptake) (LNCap tumor-bearing mice): 2.35; uptake ratio between tumor to kidney (LNCap tumor-bearing mice; mice bearing LNCap tumor, compared to ABL-56 (C-10) or C-9): improved uptake ratio between tumor to kidney
HO-C18-gGlu-K(DOTA)-Trx-2NaI-eKuE [Example C-4, reference compound] |  |  |  |  |  |  |  | 0.03 | 
HO-C18-gGlu-OEG-OEG-Gly-6hHA-Lys(DOTA)-OEG-Trx-2NaI-eKuE [Example I-50] | 100 | 100 | 58.4 | 13.7 | 8.87 | 0 | 5.7* h |  | 
HO-C18-gGlu-OEG-OEG-Gly-4hPA-OEG-Lys(DOTA)-Trx-2NaI-eKuE [Example I-53] | 100 | 82.1 | 53.0 | 25.2 | 17.4 | 0 | 5.2* h |  | 
HO-C18-gGlu-OEG-OEG-OEG-Lys(DOTA)-OEG-Trx-2NaI-eKuE [Example C-6, reference compound] | 100 | 100 | 100 | 100 | 100 | 100 | Stable |  | T at 24 h (tumor uptake) [3]: 49.7; T/K at 24 h (tumor uptake/kidney uptake) [3]: 2.54; T at 96 h (tumor uptake) [3]: 42.3; T/K at 96 h (tumor uptake/kidney uptake) [3]: 6.50
(HO-C18-gGlu-Lys(-OEG-DOTA)-OEG-OEG-OEG-NH2CH2CH2NH-TMA(-OEG-Trx-2NaI-eKuE)2 [Example C-7, reference compound] | 100 | 100 | 100 | 100 | 100 | 100 | Stable |  | LogIC50 Mean (PSMA; log10 of IC50 (negative values), nonlin fit, LNCaP cells, ^125I-C-8 radioligand): −7.766; IC50 (PSMA; nonlin fit, LNCaP cells, ^125I-C-8 radioligand, scientific notation, unit inferred): 17.2 nM; T at 24 h (tumor uptake) [3]: 31.4; T/K at 24 h (tumor uptake/kidney uptake) [3]: 1.14; T at 96 h (tumor uptake) [3]: 48.7; T/K at 96 h (tumor uptake/kidney uptake) [3]: 3.00
(HO—C18)-gGlu-OEG-OEG-OEG-OEG-OEG-Glu-Arg-Gly-Glu-Thr-Gly-Pro-Ser-Gly-OEG-Lys(-ESL1-DOTA)-Trx-2NaI-eKuE [Example I-32] |  |  |  |  |  |  |  | 0.04 | 
